Reference: US9132135B2, “Method of treating organophosphorous poisoning” (dated 2015)

Tests used:
[1] = test system: brain neurons of guinea pigs; assay: Fluoro-Jade B histopathology of hippocampus, pyriform cortex and amygdala; conditions: galantamine 8 mg/kg or atropine 10 mg/kg, no soman
blood and brain AChE = conditions: in vivo; cited from earlier work
guinea pigs [2] = assay: Open-field arena: locomotor activity and stereotypy
guinea pigs [3] = assay: Acute toxicity of the drugs by themselves in guinea pigs (side effects, survival, weight gain)
[4] = huperzine-A 0.3 mg/kg by itself

Molecule | brain damage / FJ-B-positive neurons 24 hours after i.m. injection of drug alone [1] | decrease of both blood and brain AChE activity at doses that prevent OP toxicity (blood and brain AChE) | overall locomotor activity in open field (guinea pigs [2]; galantamine 8 mg/kg or huperzine 300 μg/kg i.m.) | locomotor stereotypy versus saline-treated animals (guinea pigs [2]; huperzine 300 μg/kg i.m., 30 minutes after treatment) | rate of weight gain within 1 week after single i.m. injection (guinea pigs [3]; drug alone: galantamine 8 mg/kg, atropine 10 mg/kg, huperzine 300 μg/kg) | side effects (guinea pigs [3]; huperzine doses ≧300 μg/kg) | fatality by day one (guinea pigs [3]; [4]) | fatality from day 2 through day 7 (guinea pigs [3]; [4])
CN1[C@@H]2CC[C@H]1C[C@@H](OC(=O)C(CO)c1ccccc1)C2 (some centres unmarked) | no signs of brain damage |  |  |  |  |  |  | 
huperzine A |  | about 70% | adversely increased the locomotor activity | significantly higher | 1.72±0.17 % per day | transient, albeit incapacitating side effects | 30% | about 65%
